Legend:
C2C12 cells [1] = assay: Osteoblast differentiation assay (alkaline phosphatase), 5 days; type: cell-based, mouse; conditions: 50 ng/ml for 5 days
Procedure: C2C12 mesenchymal precursor cells (American Type Tissue Culture, Reston, Va.) were cultured in DMEM (Invitrogen, Carlsbad, Calif.) supplemented with 10 percent heat-inactivated fetal calf serum. Alkaline phosphatase activity in C2C12 cells was measured as described (Gallea, et al., 2001; Spinella-Jaegle, et al., 2001). Cell lysates were analyzed for protein content using the micro-BCA assay kit (Pierce, Rockford, Ill.).
Bone morphogenic protein-2 can induce differentiation of the uncommitted mesenchymal progenitor cell line C2C12 (Katagiri, et al., 1994) into osteoblasts through a mechanism that involves Wnt/b-catenin signaling (Bain, et al., 2003; Roman-Roman, et al., 2002). Alkaline phosphatase, a specific marker of osteoblast differentiation, was undetectable in C2C12 cells grown in 5 percent fetal calf serum for 5 days (FIG. 41A). […] This in vitro effect on alkaline phosphatase production was neutralized by a polyclonal anti-DKK1 antibody, but not by a non-specific polyclonal goat IgG. Bone marrow serum with a DKK1 concentration>12 ng/ml from five patients with myeloma inhibited the production of alkaline phosphatase by C2C12 cells treated with BMP-2, and this effect was reversed by the anti-DKK1 antibody, but not by non-specific IgG (FIG. 41B). […]

C2C12 cells [2] = assay: Alkaline phosphatase (ALP) assay, BMP-2-induced differentiation; type: cell-based, mouse; conditions: 72 hrs, DMEM with 2% horse serum
Procedure: Cells were cultured in DMEM with 2% horse serum including either BMP-2 (200 ng/ml), Wnt3a CM, BPM-2 plus Dkk1, or BMP-2 plus Wnt3a CM for 72 or 96 hr followed by lysis in 150 ml of lysis buffer (20 mM Tris HCl, pH 8 and 150 mM NaCl, 0.2% NP40). ALP activity was measured using ALP kit (Diagnostic Chemical Limited, Exton, Pa.) according to manufacturer instructions. Absorbance The of samples was determined with a Spectra Max340 Microplate Spectrophotometer (Molecular Devices, Sunnyvale, Calif.) at 402 nm. Cell lysates were analyzed for protein content with using the micro-BCA assay kit (Pierce, Rockford, Ill.).
Chemical synthesis of siRNA specific to LRP5/6, GFP, and control siRNA were purchased from Qiagen (Valencia, Calif.). The siRNA were transiently transfected into C2C12 using Lipofectamine according to manufacturer instructions (Invitrogen). RNA was isolated after 24, 48 or 72 hours then subjected to RT-PCR or qPCR for determination of efficacy of target gene silencing.

B1: BMP-2: bone morphogenic protein-2, induces osteoblast differentiation of C2C12 (protein, UniProt P12643 283-396, looked up)
Bone morphogenetic protein 2: QAKHKQRKRLKSSCKRHPLYVDFSDVGWNDWIVAPPGYHAFYCHGECPFPLADHLNSTNHAIVQTLVNSVNSKIPKACCVPTELSAISMLYLDENEKVVLKNYQDMVVEGCGCR
- alkaline phosphatase production (C2C12 cells [1]): induced them to produce alkaline phosphatase
- ALP activity, factor alone (C2C12 cells [2]): increased ALP activity
